Settings: subcutaneous, days 1, 11 and 30, H&E

For Ac-VEVSVSVEV^DPPTEVSVEVEV-NH2 [AcVES3], the lymphocytic immune response was “minimal (at most)”.

From patent US11661439B2, “Peptide hydrogels and use thereof” (The United States of America, as represented by the …, priority 2017, dated 2023)
